# Yeast mating assay 1: variants of the scFv Ab-14

Antigen: PDVDLGDISGINAS, a 14-residue peptide of the SARS-CoV-2 spike HR2 region.

Parent scFv Ab-14: VH joined to VL by a 15-residue (Gly4Ser)3 linker. Changes lie in the light chain CDRs alone.
VH: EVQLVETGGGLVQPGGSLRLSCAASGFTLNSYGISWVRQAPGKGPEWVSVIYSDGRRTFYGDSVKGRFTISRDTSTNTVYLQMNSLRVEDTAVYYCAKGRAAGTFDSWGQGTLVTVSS
VL: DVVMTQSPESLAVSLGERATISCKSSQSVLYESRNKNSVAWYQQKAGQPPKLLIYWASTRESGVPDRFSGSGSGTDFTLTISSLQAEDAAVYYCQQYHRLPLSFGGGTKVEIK

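The starting antibody came from a phage panning campaign against this peptide. AAYL50 was designed without a model: most single CDR substitutions and a random sample of double and triple ones. The scFvs were displayed on barcoded MATa yeast, the peptide on MATalpha yeast. Mating (16 h, 30 °C) was followed by selection of diploids and sequencing of their barcodes. The ratio of observed to expected reads was calibrated, replicate by replicate, on BCL2-family standards whose Kd was known from biolayer interferometry. There are three technical replicates.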

Changes read parent residue, position, new residue, counted from the first residue of the VL shown. This list gathers variants with a substitution at S62 (VL, numbered from residue 1). Each Kd is an estimate from the mating assay, the geometric mean of the replicates in which the pair was seen; lower is stronger. A pair that was not seen in any replicate is written "nd"; this usually means weak binding, but a binder can also be missed. Nonspecific signal, from three strains lacking the peptide, appeared in 18% of pairings of library AAYL50, centred on 15 µM (5% of these signals below 970 nM); values are not corrected for it. For each scFv, signals with the empty controls are counted beside the result. For reference, the parent read 4.4 nM as the reference entry and 48 nM as a member of this library.

* K24W W56P S62A: nd (0 of 3 replicates; controls 0 of 9)
* K36C A57P S62A: 61 µM (3 of 3 replicates; controls 4 of 9)
* S62G Q95V Q96D: 16 µM (2 of 3 replicates; controls 2 of 9)
* L30Y S62W Q95Y: nd (0 of 3 replicates; controls 2 of 9)
* Q27Y W56H S62C: nd (0 of 3 replicates; controls 2 of 9)
* Q27K S28L S62K: 190 nM (3 of 3 replicates; controls 1 of 9)
* L30V R34C S62W: 120 nM (3 of 3 replicates; controls 3 of 9)
* S33V R60D S62H: 7.8 µM (1 of 3 replicates; controls 1 of 9)
* V39H R60P S62Y: 39 µM (2 of 3 replicates; controls 2 of 9)
* V29C N35K S62A: 100 nM (3 of 3 replicates; controls 4 of 9)
* N37H W56V S62P: 8.1 µM (3 of 3 replicates; controls 1 of 9)
* N37Q W56N S62V: 4.2 nM (3 of 3 replicates; controls 4 of 9)
* N37M R60E S62P: nd (0 of 3 replicates; controls 0 of 9)
* N37I S62Y H98P: nd (0 of 3 replicates; controls 0 of 9)
* R34V S62Y L102E: nd (0 of 3 replicates; controls 0 of 9)
* Y31V S62C S103H: 140 nM (3 of 3 replicates; controls 4 of 9)
* S28G S62F: 21 nM (3 of 3 replicates; controls 3 of 9)
* A57S T59W S62R: nd (0 of 3 replicates; controls 1 of 9)
* T59W E61A S62C: 58 nM (3 of 3 replicates; controls 0 of 9)
* S62M P101K: 190 nM (3 of 3 replicates; controls 2 of 9)
* L30Q S62E P101S: 23 nM (3 of 3 replicates; controls 0 of 9)
* S26F S28L S62A: nd (0 of 3 replicates; controls 1 of 9)
* N35R S62T Q95L: 23 nM (3 of 3 replicates; controls 5 of 9)
* K36L S62P Y97P: 680 µM (2 of 3 replicates; controls 1 of 9)
* N35C T59R S62P: 140 nM (3 of 3 replicates; controls 4 of 9)
* S62E Q95T R99T: 18 µM (1 of 3 replicates; controls 5 of 9)
* E32F S62Y L100N: 690 nM (3 of 3 replicates; controls 0 of 9)
* K36Y A40D S62H: nd (0 of 3 replicates; controls 0 of 9)
* L30M S62Q Y97F: 59 nM (3 of 3 replicates; controls 0 of 9)
* S28H A40E S62P: 43 µM (3 of 3 replicates; controls 5 of 9)
* K36E E61S S62V: 1.9 nM (3 of 3 replicates; controls 0 of 9)
* V29Y S62P Q96F: 13 nM (3 of 3 replicates; controls 0 of 9)
* S58A S62F Q95K: 160 nM (3 of 3 replicates; controls 0 of 9)
* L30P W56T S62A: 1.2 nM (3 of 3 replicates; controls 4 of 9)
* L30Y T59H S62P: 80 nM (3 of 3 replicates; controls 3 of 9)
* S33A K36F S62N: 150 nM (3 of 3 replicates; controls 3 of 9)
* S25K K36G S62P: 53 nM (3 of 3 replicates; controls 1 of 9)
* W56T A57I S62Y: 1.1 µM (3 of 3 replicates; controls 0 of 9)
* W56F S62P R99A: 8.4 nM (3 of 3 replicates; controls 0 of 9)
* N35S E61C S62K: 32 nM (3 of 3 replicates; controls 1 of 9)
* Q27H L30G S62E: 1.1 nM (3 of 3 replicates; controls 1 of 9)
* S62L H98N: 5.9 nM (3 of 3 replicates; controls 1 of 9)
* R34D A40Y S62T: nd (0 of 3 replicates; controls 0 of 9)
* Y31D N37V S62Q: nd (0 of 3 replicates; controls 1 of 9)
* N35M S62P: 12 nM (3 of 3 replicates; controls 6 of 9)
* S58H S62R: 13 nM (3 of 3 replicates; controls 2 of 9)
* S33H S38H S62R: 9.6 µM (3 of 3 replicates; controls 3 of 9)
* T59I S62N H98N: 3.3 nM (3 of 3 replicates; controls 2 of 9)
* V29H N35I S62T: 9.8 nM (3 of 3 replicates; controls 0 of 9)

6 of these entries, quoted again:

| changes | Kd (apparent) | detected | empty controls |
|---|---|---|---|
| Y31V S62C S103H | 140 nM | 3 of 3 | 4 of 9 |
| K36C A57P S62A | 61 µM | 3 of 3 | 4 of 9 |
| W56T A57I S62Y | 1.1 µM | 3 of 3 | 0 of 9 |
| S62M P101K | 190 nM | 3 of 3 | 2 of 9 |
| L30M S62Q Y97F | 59 nM | 3 of 3 | 0 of 9 |
| N35C T59R S62P | 140 nM | 3 of 3 | 4 of 9 |

Reference: Engelhart et al. 2022, doi:10.1038/s41597-022-01779-4. File: FLAb, binding data.